{"source": "paper PMC5082792", "about": "(PLoS ONE, 2016)", "origin": "cited, not measured here", "design": "method as in PMID 21383098", "settings": "co-administration of ETR, 14 healthy adults; cited from earlier work"}
{"substance": "maraviroc", "values": [{"measurement": "decrease of maraviroc exposure (AUC0–12h)", "value": 53, "unit": "%"}]}
